Key:
p38 MAPKα = p38 MAPKα (Homo sapiens (Human), UniProt Q16539); assay: p38 MAPKα enzyme inhibition (FRET, Z-LYTE); type: biochemical
cSrc = cSrc (Homo sapiens (Human), UniProt P12931); assay: c-Src enzyme inhibition (FRET, Z-LYTE); type: biochemical
Syk = Syk (Homo sapiens (Human), UniProt P43405); assay: Syk enzyme inhibition (FRET, Z-LYTE); type: biochemical
Method: The enzyme inhibitory activities of compounds disclosed herein are determined by FRET using synthetic peptides labelled with both donor and acceptor fluorophores (Z-LYTE, Invitrogen Ltd., Paisley, UK).
The inhibitory activities of compounds of the invention against c-Src and Syk enzymes (Invitrogen), are evaluated in a similar fashion to that described hereinabove. The relevant enzyme (3000 ng/mL or 2000 ng/mL respectively, 2.5 μL) is incubated with the test compound (either 4 μg/mL, 0.4 μg/mL, 0.04 μg/mL, or 0.004 μg/mL, 2.5 μL each) for 2 hr at RT. The FRET peptides (8 μM, 2.5 μL), and appropriate ATP solutions (2.5 μL, 800 μM for c-Src, and 60 μM ATP for Syk) are then added to the enzymes/compound mixtures and incubated for 1 hr. Development reagent (protease, 5 μL) is added for 1 hr prior to detection in a fluorescence microplate reader (Varioskan® Flash, ThermoFisher Scientific).
In all cases, the site-specific protease cleaves non-phosphorylated peptide only and eliminates the FRET signal. Phosphorylation levels of each reaction are calculated using the ratio of coumarin emission (donor) over fluorescein emission (acceptor), for which low ratios indicate high phosphorylation and high ratios indicate low phosphorylation levels.

Amino acid sequences for entries named in this document (tags omitted).
UniProt Q16539, whole entry: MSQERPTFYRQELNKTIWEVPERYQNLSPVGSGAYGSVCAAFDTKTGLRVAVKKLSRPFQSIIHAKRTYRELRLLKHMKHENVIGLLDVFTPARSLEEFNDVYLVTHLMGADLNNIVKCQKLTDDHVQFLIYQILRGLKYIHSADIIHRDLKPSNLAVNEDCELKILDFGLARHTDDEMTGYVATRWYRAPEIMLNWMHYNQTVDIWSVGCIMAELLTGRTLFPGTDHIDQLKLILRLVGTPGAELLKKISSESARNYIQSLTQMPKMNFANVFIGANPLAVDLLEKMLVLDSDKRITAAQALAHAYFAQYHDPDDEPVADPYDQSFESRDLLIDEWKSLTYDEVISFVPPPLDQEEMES
UniProt P12931, whole entry, looked up: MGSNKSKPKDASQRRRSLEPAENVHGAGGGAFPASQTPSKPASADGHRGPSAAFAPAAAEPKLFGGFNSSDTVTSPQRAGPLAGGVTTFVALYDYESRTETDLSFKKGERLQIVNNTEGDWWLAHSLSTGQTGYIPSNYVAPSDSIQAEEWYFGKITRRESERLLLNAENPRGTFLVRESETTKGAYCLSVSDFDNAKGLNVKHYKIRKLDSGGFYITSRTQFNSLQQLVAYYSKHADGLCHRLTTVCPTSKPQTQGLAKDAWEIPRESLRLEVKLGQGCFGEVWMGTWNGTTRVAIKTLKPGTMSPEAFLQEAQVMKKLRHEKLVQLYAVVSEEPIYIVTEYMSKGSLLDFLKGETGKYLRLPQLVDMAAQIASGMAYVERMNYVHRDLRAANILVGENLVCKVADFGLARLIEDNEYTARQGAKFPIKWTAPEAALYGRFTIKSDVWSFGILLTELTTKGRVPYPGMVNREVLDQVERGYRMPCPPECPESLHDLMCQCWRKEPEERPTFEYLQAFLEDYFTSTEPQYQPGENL

[1] = test system: Poly I:C-induced ICAM-1 expression in BEAS2B cells; assay: Poly I:C-induced ICAM-1 expression in BEAS2B cells; type: cell-based; details: Homo sapiens, BEAS-2B, read-out: Poly IC induced ICAM1 in BEAS2B IC50
Method: Poly I:C is used in these studies as a simple, RNA virus mimic. Poly I:C-Oligofectamine mixture (1 μg/mL Poly I:C, ±2% Oligofectamine, 25 uL) (Invivogen Ltd., San Diego, Calif., and Invitrogen, Carlsbad, Calif., respectively) is transfected into BEAS2B cells (human bronchial epithelial cells, ATCC). Cells are pre-incubated with final concentrations of test compounds for 2 hr and the level of ICAM1 expression on the cell surface is determined by cell-based ELISA. […]
The cells are washed with PBS-Tween (3×200 μL) and incubated with the secondary antibody (100 μL) (HRP-conjugated anti-rabbit IgG, Dako Ltd., Glostrup, Denmark). […] The ICAM-1 signal is detected by reading and reading the absorbance at 450 nm against a reference wavelength of 655 nm using a spectrophotometer. The cells are then washed with PBS-Tween (3×200 μL) and total cell numbers in each well are determined by reading absorbance at 595 nm after Crystal Violet staining (50 μL of a 2% solution in PBS) and elution by 1% SDS solution (100 μL) in distilled water. The measured OD 450-655 readings are corrected for cell number by dividing with the OD595 reading in each well. The inhibition of ICAM-1 expression is calculated at each concentration of test compound by comparison with vehicle control.

IC50 (p38 MAPKα) | IC50 (cSrc) | IC50 (Syk) | Structure (SMILES) | IC50 [1]
21 nM | 21 nM | – | Cc1ccc(-n2nc(C(C)(C)C)cc2NC(=O)Nc2ccc(Oc3ccnc(Nc4cccc5[nH]ncc45)n3)c3ccccc23)cc1 [Example 21] | –
– | 14 nM | 14 nM | Cc1ccc(-n2nc(C(C)(C)C)cc2NC(=O)Nc2ccc(Oc3ccnc(Nc4cnc5[nH]ccc5c4)n3)c3ccccc23)cc1 [Example 32, 1-(4-((2-((1H-pyrrolo[2,3-b]pyridin-5-yl)amino)pyrimidin-4-yl)oxy)naphthalen-1-yl)-3-(3-(tert-butyl)-1-(p-tolyl)-1H-pyrazol-5-yl)urea] | 14.3 nM
